The assay addresses T1, Phosphatidylinositol 4,5-bisphosphate 3-kinase catalytic subunit delta isoform (Homo sapiens, UniProt O00329).
T1 sequence (O00329 whole entry): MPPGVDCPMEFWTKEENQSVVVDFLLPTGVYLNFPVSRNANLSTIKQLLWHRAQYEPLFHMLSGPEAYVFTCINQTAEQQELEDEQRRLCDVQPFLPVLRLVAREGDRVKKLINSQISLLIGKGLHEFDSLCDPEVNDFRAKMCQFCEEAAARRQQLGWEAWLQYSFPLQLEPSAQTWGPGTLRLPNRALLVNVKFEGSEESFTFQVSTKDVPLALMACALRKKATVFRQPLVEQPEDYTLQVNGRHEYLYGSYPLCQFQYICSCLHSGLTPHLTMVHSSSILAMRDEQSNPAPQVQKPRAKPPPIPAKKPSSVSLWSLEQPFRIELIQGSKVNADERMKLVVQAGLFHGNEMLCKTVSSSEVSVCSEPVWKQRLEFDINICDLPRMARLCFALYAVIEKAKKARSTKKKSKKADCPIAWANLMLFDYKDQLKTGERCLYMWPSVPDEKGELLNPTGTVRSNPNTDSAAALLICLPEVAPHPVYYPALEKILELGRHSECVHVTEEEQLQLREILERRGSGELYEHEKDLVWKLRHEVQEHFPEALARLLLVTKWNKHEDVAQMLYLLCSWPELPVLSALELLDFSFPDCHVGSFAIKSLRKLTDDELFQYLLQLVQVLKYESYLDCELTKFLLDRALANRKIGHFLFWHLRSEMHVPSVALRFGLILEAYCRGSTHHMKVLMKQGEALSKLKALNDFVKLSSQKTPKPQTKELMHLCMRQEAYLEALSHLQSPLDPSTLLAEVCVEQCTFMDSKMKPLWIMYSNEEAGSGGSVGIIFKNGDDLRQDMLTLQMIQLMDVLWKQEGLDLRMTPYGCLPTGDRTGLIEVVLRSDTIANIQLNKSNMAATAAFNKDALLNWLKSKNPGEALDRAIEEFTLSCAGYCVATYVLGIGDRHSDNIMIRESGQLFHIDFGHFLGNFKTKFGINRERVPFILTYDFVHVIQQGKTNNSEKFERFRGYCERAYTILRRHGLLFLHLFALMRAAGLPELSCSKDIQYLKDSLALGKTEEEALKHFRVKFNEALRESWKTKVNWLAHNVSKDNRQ
The assay can be described thus: Inhibition of PI3Kdelta (unknown origin).

The structures appear in SMILES notation.

`CC(Nc1ncnc(N)c1C#N)c1cc2ncc(Cl)n2nc1-c1ccccc1` (stereo unspecified) displayed a concentration for half-maximal inhibition (IC50) of 87 nM.

One may read the IC50 as the midpoint of a concentration-inhibition curve.

These data come from ChEMBL document CHEMBL5236558, “Imidazo[1,2-b]pyridazine as privileged scaffold in medicinal chemistry: An extensive review” (Eur J Med Chem, 2021).
